# Antibody variant affinities, Ab-14 heavy chain, assay B

Antigen: PDVDLGDISGINAS, a 14-residue peptide of the SARS-CoV-2 spike HR2 region.

Parent: Ab-14, a human scFv built as VH, the linker GGGGSGGGGSGGGGS, VL. Only the CDRs of the heavy chain vary.
VH: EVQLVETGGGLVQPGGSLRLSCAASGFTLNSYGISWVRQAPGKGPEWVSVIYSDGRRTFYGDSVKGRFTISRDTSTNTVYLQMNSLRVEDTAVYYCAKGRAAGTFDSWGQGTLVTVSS
VL: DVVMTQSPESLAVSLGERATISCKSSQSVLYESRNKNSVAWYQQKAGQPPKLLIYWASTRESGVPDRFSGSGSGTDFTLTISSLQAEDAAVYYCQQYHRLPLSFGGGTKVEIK

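The parent was found by panning a naive human phage display library on the peptide. Designed CDR sequences, proposed from the first random library and measured here. Group labels follow the data file (Ctrl: baseline library sampled from a position-specific scoring matrix, with some repeated check sequences; Rand: our label for a block that the file lists under HC and that is probably the random mutants of the ten best first-round binders; En: ensemble of fine-tuned language models; GP: Gaussian process model; GPLM: also part of the Gaussian process libraries; HC: hill climbing; Gen: genetic algorithm; Gibbs: Gibbs sampling; a sequence that several methods proposed may carry one label only). The scFvs were displayed on barcoded MATa yeast, the peptide on MATalpha yeast. After mating in shaken culture at 30 °C for 16 h, diploids were selected and their barcode pairs sequenced. Read counts were normalised to the haploid input and turned into Kd by a linear fit to BCL2-family pairs of known affinity, for each replicate. The assay was run in six technical replicates.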

The parent's heavy chain CDRs are GFTLNSYGIS, VIYSDGRRTFYGDSVK, GRAAGTFDS; each variant's own CDRs replace them letter for letter.
The read-out is the apparent dissociation constant on a log10 scale (nM): the lower, the stronger.
A mean of the replicates is given; it leaves out those without a signal.
Where no diploid with the target was found in any replicate, the entry reads "nd": below detection, most likely a poor binder, though not proof of it.
Empty control strains, which show no peptide, gave a signal in 1% of pairings with all heavy chain designs; the median was 2.08 and 95% of these signals were weaker than 0.84. No background was subtracted.
In the paper, a design with two or fewer of six values counts as a poor binder.
A sequence measured in both rounds can read differently, since the two assays cover different ranges.
Some sequences occur more than once in the pool; their replicates are pooled.

CDR-H1	CDR-H2	CDR-H3	group	mean, log10 nM	detected
GFELNSYGIS	VIYSDGRRTAYQDSVK	GRAAGTFDS	GPLM_Gibbs	-0.01	6/6
GFTLDSYGIS	VIYSDGRRTFYAGSVK	GRAAGTFDF	Ctrl	2.49	5/6
GFNLNSYGIS	VIYSDGRRTFYTDNVK	GRTAGTFDS	GP_Gibbs	0.65	6/6
GMSLDSYGIS	VIYADGMRTSYDNSVK	GAWAGTFDE	En_Gibbs	1.09	5/6
GFDLNEYGIS	VIYADGQRTFYTDSVK	GTDAGTFDV	En_HC	0.91	3/6
GFVLNEYGIS	VIYSDGRRTFYVDSVK	GKAAGTFDS	GP_Gibbs	0.75	6/6
GFSLNEYGIS	VIYSDGRRTFYGDSVK	GQAAGTFDE	GPLM_Gen	1.78	1/6
GFYLNEYGIS	VIYSDGRRTFYQDSVK	GRFAGTFDS	GP_HC	1.64	3/6
GFSLNMYGIS	VIYSDGRRTFYHDSVK	GRAAGTFDS	GP_HC	1.05	5/6
GKHLDEYGIS	VIYADGQRVFYSDTVK	GIQGFTVDV	En_Gibbs	nd	0/6
GFTINSYGIS	VIYSDGRRTFYQDSVK	GRAAGTFDS	Ctrl	nd	0/6
GFSLDEYGIS	VIYADGTRTMYIDNVK	GLIGMFCDI	En_Gibbs	0.89	1/6
GFNLDEYGIS	VIYADGMRTFYSDNVK	GEAGGTFDI	En_HC	0.72	6/6
GFTLNSYGIS	VIYSDGIRLFYGDSVK	GRAAGTFDS	Ctrl	1.88	1/6
GFSLNSYGIS	VIYSDGRRTFYGDSVK	GDAAGTFDS	Ctrl+GPLM_Gen	0.74	12/12
GFGLNEYGIS	VIYSDGRRTFYTDSVK	GREAGTFDS	GP_HC	0.27	6/6
GFELNSYGIS	VIYADGRRTFYVDSVK	GRAAGTFDS	GP_HC	-0.15	6/6
GFNLNSYGIS	VIVSDGRRTFYGDSVK	GRAAGTFDS	Ctrl	nd	0/6
GFDLNSYGIS	VIYSDGRRTFYIDTVK	GNAAGTFDS	GP_Gibbs	0.66	6/6
KFSLNSYGIS	VIYSDGRRTFYADSVK	GRTAGTFDT	GP_Gibbs	-0.13	6/6
GFNLDEYGIS	VIYADGQRTRYANDVK	GGYGGIMLS	En_Gibbs	nd	0/6
GFDLNEYGIS	VIYADGRRTFYKDSVK	GESAGTFDQ	En_HC	-0.41	6/6
GEDLSEYGIS	VIYADGERRSYANSVK	GNVSGNFSQ	En_Gibbs	nd	0/6
GFTLNQYGIS	VIYSLGRRSFYSDSVK	GRAAGFFDS	Rand	nd	0/6
GFSLNSYGIS	VIYSDGRRTFYGDPVK	GNAAGTFDN	GP_Gibbs	1.61	6/6
GFDLNEYGIS	VIYSDGRRTFYGDSVK	GKAAGTFDS	GPLM_Gen	0.05	6/6
GFSLNSYGIS	VIYSDGRRTFYGDSVK	GRTAGTFDN	GPLM_Gen	0.98	6/6
GFDLNEYGIS	VIYADGMRTSYADDVK	GENAGTFDQ	En_Gen	-0.25	6/6
GFDLNEYGIS	VIYADGRRTAYIDSVK	GEAAGTFDT	En_HC	-0.83	6/6
GFDLNEYGIS	VIYADGRRTAYSDSVK	GGNAGTFDV	En_Gen	-0.44	6/6
GFTLNSYGIS	VIYSDGRRTFYGDSVK	GEAAGAFDS	Ctrl	nd	0/6
GFNLDEYGIS	VIYADGMRTAYADSVK	GEVAGTFDT	En_Gen	0.34	5/6
GFDLNEYGIS	VIYADGKRTAYSDSVK	GTNAGTFDS	En_HC	-0.62	6/6
GFTLNSYGIS	VIYSDGRRTFYGDSVK	TRASGTFDS	Ctrl	nd	0/6
GFTLNSYFIS	VKYSDGRGTPYDDSVK	GQLAGTGDS	Rand	nd	0/6
GFSLNSYGIS	VIYSDGRRTFYADAVK	GRTAGTFDK	GP_Gibbs	0.76	6/6
GFNLNSYGIS	VIYSDGRRTFYGDSVK	GNAAGTFDS	Ctrl+GPLM_Gibbs	0.72	12/12
GFTLNSYGIS	VIYSDGRRTFYSDSVK	GQDAGTFDS	GP_HC	1.23	5/6
GFNLNSYGIS	VIYSDGRRTFYDDSVK	GKLAGTFDS	GP_HC	0.46	6/6
GFDLNEYGIS	VIYADGRRTFYADSVK	GNNAGTFVS	En_HC	0.92	5/6
GFSLNSYGIS	VIYSDGRRTFYVDSVK	GRLAGTFDS	GPLM_Gen	0.73	3/6
GFDLNEYGIS	VIYADGMRTAYTDDVK	GENAGTFDL	En_Gen	-0.21	6/6
GFTLLDYGIS	VIYSDGRRTFYGDSVK	GRNAGTFNS	Ctrl	1.23	5/6
GFTLNEYGIS	VIYSDGRRTFYSDSVK	GWAAGTFDN	GP_HC	0.73	6/6
EFDLNEYGVS	VIYADGHRTFYADHVK	GQEAGFFFM	En_Gibbs	nd	0/6
GFDLNEYGIS	VIYADGVRTFYIDSVK	GEAAGTFDM	En_HC	-0.37	6/6
GFTLNQYGMS	VIYSDGRATFYSDSMK	GRAAGFFDS	Rand	nd	0/6
GFTLNSYGIS	VIYSDGRRTFYGDSVK	GEAAFTFDS	Ctrl	2.65	2/6
GFDLDEYGIS	VIYADGKRTFYADSVK	GNTAGTFDV	En_Gen	-0.84	6/6
GFSLNSYGIS	VIYSDGRRTAYGDPVK	GRTAGTFDS	GP_Gibbs	0.07	6/6
GFVLNDYGIS	VIYSDGRRTMYIDSVK	GRAAGTFDS	GP_HC	1.25	5/6
GDGLEEYGIS	VIYADGMRESYVDDVK	GQTGGTFNL	En_Gibbs	nd	0/6
GFMLNSYGIS	VIYSDGRRTFYGDSVK	GQTAGTFDA	GP_Gibbs	0.28	6/6
GFTLNEYGIS	VIYSDGRRTFYGDSVK	GRAAVTFGI	GP_HC	nd	0/6
GFDLNEYGIS	VIYADGRRTGYIDSVK	GEAAGTFDM	En_HC	-0.25	6/6

From the AlphaSeq antibody data of Li et al. 2023 (doi:10.1038/s41467-023-39022-2), copy in the FLAb collection.